Values quoted from earlier work as cited in US20250229073A1, “TRANSIENT DISRUPTION OF THE NEUROVASCULAR BARRIER OF A HUMAN AND USES THEREOF FOR TREATING AMYOTROPHIC LATERAL SCLEROSIS” (SORBONNE UNIVERSITE, priority 2022, published 2025).

Tested on: patients suffering from ALS
Conditions: clinical, literature; cited from earlier work

Nc1nc2ccc(OC(F)(F)F)cc2s1 [riluzole, 2-amino-6-trifluoromethoxybenzothiazole]
survival of patients suffering from ALS: prolongs the survival
